“Also recorded” adds a separate entry of the source.
Molecular target: T1, CSNK1A1 (Mus musculus, UniProt Q8BK63)
T1 construct: endogenous in cells; host or cells: Ba/F3; primary murine MLL-AF9 AML cells
Type: cell-based, murine
Conditions: lenalidomide 24 hours in vitro
Protocol: CSNK1A1 protein levels were assessed by immunoblot. […] Non-conserved amino acids are indicated by red bars.

The chains behind the UniProt entries cited, without tags or fusion partners. Residues count along the entry.
UniProt Q8BK63, 2-337 limits assumed: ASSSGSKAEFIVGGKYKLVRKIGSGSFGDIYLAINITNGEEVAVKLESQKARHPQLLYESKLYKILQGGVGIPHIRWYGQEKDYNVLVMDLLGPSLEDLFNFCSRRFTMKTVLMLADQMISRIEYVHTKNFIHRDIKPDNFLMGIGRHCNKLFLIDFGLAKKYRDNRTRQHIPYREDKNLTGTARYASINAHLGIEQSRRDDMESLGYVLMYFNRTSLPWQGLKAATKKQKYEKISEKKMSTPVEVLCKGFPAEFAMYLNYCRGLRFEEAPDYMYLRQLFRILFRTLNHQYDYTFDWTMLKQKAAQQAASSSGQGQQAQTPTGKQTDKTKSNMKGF

Compound: Nc1cccc2c1CN(C1CCC(=O)NC1=O)C2=O (centres unmarked) [lenalidomide]
- CSNK1A1 protein levels in murine Baf3 cells: No change; also recorded: did not decrease Csnk1a1 protein levels
- CSNK1A1 protein levels in primary MLL-AF9 transformed mouse cells: No change; also recorded: did not decrease Csnk1a1 protein levels

From patent publication US20160282354A1, “COMPOSITIONS AND METHODS FOR SELECTING A TREATMENT FOR B-CELL NEOPLASIAS” (THE BROAD INSTITUTE, INC., priority 2013, published 2016)
